Laboratory results: ChEMBL document CHEMBL1140447, “Synthesis and antimuscarinic properties of quinuclidin-3-yl 1,2,3,4-tetrahydroisoquinoline-2-carboxylate derivatives as novel muscarinic receptor antagonists” (J Med Chem, 2005)

Tests used:
[1] = target: Muscarinic acetylcholine receptor M1 (Rattus norvegicus, UniProt P08482); experiment: Binding affinity for rat cortex muscarinic acetylcholine receptor M1 using [3H]pirenzepine
[2] = target: Muscarinic acetylcholine receptor M2 (Rattus norvegicus, UniProt P10980); experiment: Binding affinity for rat heart muscarinic acetylcholine receptor M2 using [3H]quinuclidinyl benzilate
[3] = target: Muscarinic acetylcholine receptor M3 (Rattus norvegicus, UniProt P08483); experiment: Binding affinity for rat salivary gland muscarinic acetylcholine receptor M3 using [3H]N-methylscopolamine

With `O=C(O[C@H]1CN2CCC1CC2)C1CCc2ccccc2N1c1ccccc1` (stereo partly drawn) the Ki [1] was 9.4 nM, the Ki [2] was 140 nM and the Ki [3] was 26 nM.
